From US10023592B2, “Bromodomain inhibitors” (Celgene Quanticel Research, Inc., priority 2013, dated 2018)

Molecular target: BRD4(BD1) (Homo sapiens (Human), UniProt O60885)
Assay: In vitro enzyme inhibition assay (BRD4 AlphaScreen)
Format: binding
Conditions: read-out: BRD4 IC50

SMILES: Cc1cc(-c2cc(OCc3cccc(Cl)c3Cl)cc(S(C)(=O)=O)c2)cn(C)c1=O
- IC50: 500 to 5000 nM
